Test results reported in patent EP4474386A1, “ANTHRACYCLINES” (priority 2023, dated 2024).
“Also recorded” adds a separate entry of the source.

Test system: human myelogenous leukemic cell line K562
Assay: Assay 1: Short-term growth inhibition viability assay (CellTiter-Blue)
Assay type: cell-based
Details: K562 cells, FIG. 2A
Method: Cells were seeded into 96-well format (e.g. 2000 cells/well for K562, Mjs, or U2O cells). 24 hours after seeding, cells were treated with indicated compounds for 2 hours at various concentrations. Subsequently, compounds were removed, and cells were left to grow for an additional 72 hours. Cell viability was measured using the CellTiter-Blue viability assay (Promega). Relative survival was normalized to the untreated control and corrected for background signal.
K562 cells (B. Pang, Leiden University Medical Center, the Netherlands) were maintained in RPMI-1640 medium supplemented with 8% FCS. MelJuSo cells were maintained in IMDM supplemented with 8% FCS. MelJuSo cells stably expressing PAGFP-H2A were maintained in IMDM supplemented with 8% FCS and G-418, as described in Pang, B., Qiao, X., Janssen, L. et al. Nat Commun 4, 1908 (2013). U2Os cells (ATCC® HTB-96) were maintained in DMEM medium supplemented with 8% FCS. Cell lines were maintained in a humidified atmosphere of 5% CO2 at 37°C, regularly tested for the absence of mycoplasma and the origin of cell lines was validated using STR analysis.
Assay 1. Anthracyclines are often used in the treatment of acute myeloid leukaemia and other haematological malignancies. […] The data is recorded in FIG. 2A where the IC50 values for all compounds are plotted. […]

## CC(=O)[C@]1(O)Cc2c(O)c3c(c(O)c2[C@@H](O[C@H]2C[C@H](N(C)C)[C@H](O)[C@H](C)O2)C1)C(=O)c1ccccc1C3=O [Compound 18, N,N-dimethylidarubicin]
  cytotoxicity (in words, compared with reference anthracyclines): considerably more cytotoxic than doxorubicin (1); also recorded: improved or comparable toxicity
